Laboratory results reported in US20240398749A1, “INHALABLE PROTEASE INHIBITORS FOR USE IN THE PREVENTION AND/OR TREATMENT OF FIBROTIC AUTOIMMUNE OR INFLAMMATORY LUNG DISEASES” (priority 2021, published 2024).

Assays:
Format in all cases: cell-based
human lung fibroblasts = test system: human lung fibroblasts
[1] = test system: alveolar epithelial cells (A549)
[2] = test system: alveolar epithelial cells

In the case of `CCOC(=O)[C@H]1O[C@@H]1C(=O)N[C@@H](CC(C)C)C(=O)NCCC(C)C` [E64D, aloxistatin], the TGF-beta induced proliferation (human lung fibroblasts) is reported as “decreases”, the profibrogenic genes (human lung fibroblasts) is reported as “dose-dependent downregulation of profibrogenic genes” and the “release of metalloproteinase-9 (MMP9)” value [1] is reported as “inhibits the release”. The “release of IL-8” value [2] was “inhibited the release”.
